# Source: patent publication US20250388544A1, “HETEROAROMATIC INHIBITORS OF ASTACIN PROTEINASES” (VIVORYON THERAPEUTICS N.V., priority 2019, published 2025)
# The chains behind the UniProt entries cited, without tags or fusion partners. Residues count along the entry.
# UniProt Q16819, 66-746 limits assumed: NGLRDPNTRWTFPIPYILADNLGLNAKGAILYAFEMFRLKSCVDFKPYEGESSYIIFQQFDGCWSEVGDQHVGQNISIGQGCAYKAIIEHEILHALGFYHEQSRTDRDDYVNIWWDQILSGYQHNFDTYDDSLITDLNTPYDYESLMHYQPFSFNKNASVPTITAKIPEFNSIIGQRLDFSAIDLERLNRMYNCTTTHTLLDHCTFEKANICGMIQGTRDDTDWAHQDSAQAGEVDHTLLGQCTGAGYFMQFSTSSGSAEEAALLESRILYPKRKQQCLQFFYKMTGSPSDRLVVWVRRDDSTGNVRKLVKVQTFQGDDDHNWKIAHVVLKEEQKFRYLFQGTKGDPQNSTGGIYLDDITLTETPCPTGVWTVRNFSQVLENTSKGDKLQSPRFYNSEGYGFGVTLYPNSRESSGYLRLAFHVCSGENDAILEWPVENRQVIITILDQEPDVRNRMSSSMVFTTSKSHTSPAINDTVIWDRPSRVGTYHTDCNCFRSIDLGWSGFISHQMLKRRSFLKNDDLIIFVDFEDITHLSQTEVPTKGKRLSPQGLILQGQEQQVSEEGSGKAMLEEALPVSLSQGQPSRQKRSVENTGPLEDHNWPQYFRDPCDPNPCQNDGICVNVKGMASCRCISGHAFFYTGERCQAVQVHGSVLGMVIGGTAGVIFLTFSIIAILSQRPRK
# UniProt Q16820, 62-701 limits assumed: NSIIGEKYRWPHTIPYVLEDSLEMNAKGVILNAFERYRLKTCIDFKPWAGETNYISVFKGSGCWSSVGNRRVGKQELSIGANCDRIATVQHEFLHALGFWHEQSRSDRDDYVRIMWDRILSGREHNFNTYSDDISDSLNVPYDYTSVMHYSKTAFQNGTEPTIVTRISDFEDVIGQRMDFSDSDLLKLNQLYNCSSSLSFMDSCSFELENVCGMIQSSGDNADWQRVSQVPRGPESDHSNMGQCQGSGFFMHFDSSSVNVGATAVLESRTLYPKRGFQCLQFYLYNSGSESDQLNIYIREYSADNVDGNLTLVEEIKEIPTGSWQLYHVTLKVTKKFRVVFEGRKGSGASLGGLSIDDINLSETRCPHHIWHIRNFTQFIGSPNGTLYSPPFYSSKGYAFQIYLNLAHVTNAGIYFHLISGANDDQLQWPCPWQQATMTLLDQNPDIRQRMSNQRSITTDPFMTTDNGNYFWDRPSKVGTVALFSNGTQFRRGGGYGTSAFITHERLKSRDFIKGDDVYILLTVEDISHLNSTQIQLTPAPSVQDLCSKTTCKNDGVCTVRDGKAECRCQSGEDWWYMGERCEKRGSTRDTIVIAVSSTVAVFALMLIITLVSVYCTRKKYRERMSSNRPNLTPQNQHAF
# UniProt P08253, 110-660 limits assumed: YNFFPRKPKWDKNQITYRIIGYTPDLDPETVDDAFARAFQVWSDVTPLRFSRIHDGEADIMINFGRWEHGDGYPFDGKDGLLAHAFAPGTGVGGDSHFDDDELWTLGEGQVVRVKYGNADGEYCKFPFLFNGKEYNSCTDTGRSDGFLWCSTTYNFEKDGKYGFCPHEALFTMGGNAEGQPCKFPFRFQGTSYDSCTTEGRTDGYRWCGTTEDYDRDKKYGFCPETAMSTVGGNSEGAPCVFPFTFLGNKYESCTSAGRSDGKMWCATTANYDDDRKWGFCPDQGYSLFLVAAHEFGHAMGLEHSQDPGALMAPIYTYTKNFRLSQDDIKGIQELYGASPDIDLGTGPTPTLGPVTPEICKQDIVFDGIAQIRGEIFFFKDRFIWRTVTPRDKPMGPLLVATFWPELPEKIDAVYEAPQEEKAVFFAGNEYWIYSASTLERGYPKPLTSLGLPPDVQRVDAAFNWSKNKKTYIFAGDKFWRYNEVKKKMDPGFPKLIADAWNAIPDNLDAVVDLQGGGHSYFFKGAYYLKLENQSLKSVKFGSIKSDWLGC
# UniProt O14672, 214-748 limits assumed: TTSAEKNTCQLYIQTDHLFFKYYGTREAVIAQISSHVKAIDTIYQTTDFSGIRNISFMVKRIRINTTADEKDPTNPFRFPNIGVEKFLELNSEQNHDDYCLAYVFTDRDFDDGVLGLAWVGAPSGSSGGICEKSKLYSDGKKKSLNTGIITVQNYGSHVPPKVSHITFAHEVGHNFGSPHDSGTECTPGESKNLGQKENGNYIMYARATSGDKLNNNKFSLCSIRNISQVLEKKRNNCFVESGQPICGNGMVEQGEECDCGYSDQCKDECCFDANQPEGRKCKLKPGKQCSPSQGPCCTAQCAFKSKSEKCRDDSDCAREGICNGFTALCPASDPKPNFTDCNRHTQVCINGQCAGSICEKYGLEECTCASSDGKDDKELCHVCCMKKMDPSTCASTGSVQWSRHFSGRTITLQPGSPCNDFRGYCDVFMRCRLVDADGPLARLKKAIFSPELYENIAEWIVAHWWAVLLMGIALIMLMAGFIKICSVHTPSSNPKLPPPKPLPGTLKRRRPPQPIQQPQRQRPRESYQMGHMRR
# UniProt P78536, 215-824 limits assumed: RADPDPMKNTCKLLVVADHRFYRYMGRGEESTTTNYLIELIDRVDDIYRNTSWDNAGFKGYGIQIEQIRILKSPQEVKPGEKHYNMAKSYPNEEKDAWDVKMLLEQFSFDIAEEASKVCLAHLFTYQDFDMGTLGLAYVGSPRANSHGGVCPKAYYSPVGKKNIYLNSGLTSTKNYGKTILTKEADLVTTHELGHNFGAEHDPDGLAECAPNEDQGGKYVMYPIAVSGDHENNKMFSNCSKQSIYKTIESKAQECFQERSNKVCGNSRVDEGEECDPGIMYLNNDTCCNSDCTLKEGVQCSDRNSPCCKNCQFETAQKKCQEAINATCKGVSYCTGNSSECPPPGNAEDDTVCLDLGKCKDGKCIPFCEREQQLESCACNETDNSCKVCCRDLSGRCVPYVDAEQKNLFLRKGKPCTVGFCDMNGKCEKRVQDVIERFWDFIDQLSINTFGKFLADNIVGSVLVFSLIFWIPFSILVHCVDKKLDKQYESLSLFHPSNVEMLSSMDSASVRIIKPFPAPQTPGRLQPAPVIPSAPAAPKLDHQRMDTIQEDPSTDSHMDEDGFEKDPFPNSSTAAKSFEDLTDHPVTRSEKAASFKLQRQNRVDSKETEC
# UniProt P14780, 107-707 limits assumed: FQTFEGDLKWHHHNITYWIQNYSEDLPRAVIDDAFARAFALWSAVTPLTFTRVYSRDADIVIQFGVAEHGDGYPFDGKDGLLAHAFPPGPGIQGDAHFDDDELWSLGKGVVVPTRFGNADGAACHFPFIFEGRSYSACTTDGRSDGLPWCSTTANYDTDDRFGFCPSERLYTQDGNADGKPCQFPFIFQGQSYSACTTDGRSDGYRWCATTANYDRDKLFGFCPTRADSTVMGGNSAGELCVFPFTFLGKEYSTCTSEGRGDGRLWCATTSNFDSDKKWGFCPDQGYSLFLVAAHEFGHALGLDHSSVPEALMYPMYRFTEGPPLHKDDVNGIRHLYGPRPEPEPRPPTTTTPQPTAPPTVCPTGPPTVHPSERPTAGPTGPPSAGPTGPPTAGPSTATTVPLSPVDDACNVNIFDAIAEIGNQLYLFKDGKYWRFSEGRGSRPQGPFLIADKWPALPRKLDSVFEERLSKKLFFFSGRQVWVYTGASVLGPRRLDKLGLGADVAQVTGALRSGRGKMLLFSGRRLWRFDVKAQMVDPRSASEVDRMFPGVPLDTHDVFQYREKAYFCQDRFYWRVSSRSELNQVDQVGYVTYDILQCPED
# Legend:
# hMeprin α [1] = biological target: T1, hMeprin α (Homo sapiens, UniProt Q16819); experiment: Enzymatic assay, quenched peptide substrate cleavage, method A; conditions: read-out: Meprin alpha IC50, geometric mean (geometric SD factor in parentheses)
# hMeprin β [2] = biological target: T2, hMeprin β (Homo sapiens, UniProt Q16820); experiment: as above; conditions: read-out: Meprin beta IC50, geometric mean (geometric SD factor in parentheses)
# hMeprin α [3] = biological target: T1, hMeprin α; experiment: Enzymatic assay, quenched peptide substrate cleavage, method B
# hMeprin β [4] = biological target: T2, hMeprin β; experiment: as above
# hMMP 13 = hMMP 13 (Homo sapiens, UniProt P45452); experiment: Residual enzyme activity of other metalloproteases; format: biochemical
# hMMP 2 = hMMP 2 (Homo sapiens, UniProt P08253); experiment: Residual enzyme activity of other metalloproteases; format: biochemical
# hADAM 10 = hADAM 10 (Homo sapiens, UniProt O14672); experiment: Residual enzyme activity of other metalloproteases
# hADAM 17 = hADAM 17 (Homo sapiens, UniProt P78536); experiment: Residual enzyme activity of other metalloproteases
# hMMP 9 = hMMP 9 (Homo sapiens, UniProt P14780); experiment: Residual enzyme activity of other metalloproteases
compound,measurement,setting,value
O=C(Cn1c(-c2ccc(Cl)c(O)c2F)nc2ccccc21)NO,IC50,hMeprin α [1],199 nM
same,IC50,hMeprin β [2],46 nM
same,IC50,"hMeprin α [3]; read-out: Meprin alpha IC50, geometric mean (geometric SD factor in parentheses)",258 nM
same,Ki,"hMeprin α [3]; read-out: Meprin alpha Ki(app), Morrison's equation, geometric mean (geometric SD factor in parentheses)",263 nM
same,IC50,"hMeprin β [4]; read-out: Meprin beta IC50, geometric mean (geometric SD factor in parentheses)",258 nM
same,Ki,"hMeprin β [4]; read-out: Meprin beta Ki(app), Morrison's equation, geometric mean (geometric SD factor in parentheses)",254 nM
same,Residual enzyme activity MMP13,hMMP 13; 10 μM inhibitor,105%
same,Residual enzyme activity MMP13,hMMP 13; 200 μM inhibitor,84%
same,Residual enzyme activity MMP2,hMMP 2; 10 μM inhibitor,93%
same,Residual enzyme activity MMP2,hMMP 2; 200 μM inhibitor,83%
same,Residual enzyme activity ADAM10,hADAM 10; 10 μM inhibitor,86%
same,Residual enzyme activity ADAM10,hADAM 10; 200 μM inhibitor,78%
same,Residual enzyme activity ADAM17,hADAM 17; 10 μM inhibitor,92%
same,Residual enzyme activity ADAM17,hADAM 17; 200 μM inhibitor,82%
same,Residual enzyme activity MMP9,hMMP 9; 10 μM inhibitor,94%
same,Residual enzyme activity MMP9,hMMP 9; 200 μM inhibitor,50%
